Target: Galectin-3 (Homo sapiens, UniProt P17931)
Test: Spectrophotometric Assay

Chains of the proteins cited; added tags and fusions are not shown. Residues count along the entry.
UniProt P17931, 2-250 limits assumed: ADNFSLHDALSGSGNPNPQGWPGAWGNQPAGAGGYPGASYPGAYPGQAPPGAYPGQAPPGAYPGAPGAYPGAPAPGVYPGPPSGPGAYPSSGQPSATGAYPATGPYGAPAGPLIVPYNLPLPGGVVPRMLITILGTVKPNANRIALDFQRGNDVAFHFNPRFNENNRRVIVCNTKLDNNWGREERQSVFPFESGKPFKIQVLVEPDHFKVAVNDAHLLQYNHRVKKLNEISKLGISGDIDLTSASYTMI

## CO[C@@H]1[C@@H](n2cc(-c3cc(F)c(F)c(F)c3)nn2)[C@@H](O)[C@@H](CO)O[C@H]1C(=O)N(c1cc(Br)cc(C#N)c1)[C@H]1CCNC[C@@H]1O
  IC50: 0.017 µM

Source: BindingDB's records for US20240124427 (Idorsia Pharmaceuticals, 2024)
